This series deals with normal Swiss-Webster mice. Nature of the series: single dose injection toxicity (mortality). Format: in vivo.

The compound `CCC[As](CCC)SCC(O)CO` (stereo not shown) registered an LD50 of 100 mg/kg.

The record behind these values is patent US11324714B2 (priority 2008, dated 2022).
